ChEMBL document CHEMBL4813962, “Design, synthesis and biological evaluation of sulfamoylphenyl-quinazoline derivatives as potential EGFR/CAIX dual inhibitors” (Eur J Med Chem, 2021)

How the values were obtained:
[1] = species: Homo sapiens; test: Selectivity index, ratio of IC50 for human carbonic anhydrase 2 to IC50 for human carbonic anhydrase 9
[2] = test system: Epidermal growth factor receptor (Homo sapiens), P00533 [T790M]; test: Potency index, ratio of IC50 of gefitinib to IC50 of compound for inhibition of recombinant human N-terminal GST-tagged EGFR T790M mutant (669 to 1210 residues) expressed in baculovirus expression system using peptide as substrate incubated for 2 hrs followed by substrate addition and measured after 30 mins by TR-FRET assay

Structure (SMILES)	Ratio IC50 [1]	Ratio IC50 [2]
NS(=O)(=O)c1ccc(NC(=S)Nc2ccc3ncnc(Nc4cccc(C(F)(F)F)c4)c3c2)cc1	0.9	–
COc1cc2ncnc(Nc3ccc(Cl)c(C(F)(F)F)c3)c2cc1OCCCCC(=O)Nc1ccc(S(N)(=O)=O)cc1	1.6	–
NS(=O)(=O)c1ccc(CCNC(=S)Nc2ccc3ncnc(Nc4cccc(C(F)(F)F)c4)c3c2)cc1	0.8	–
COc1cc2ncnc(Nc3cccc(C(F)(F)F)c3)c2cc1OCCCCC(=O)Nc1ccc(S(N)(=O)=O)cc1	2.4	41
